Test results reported in PubChem BioAssay AID1224863 (Southern Research Institute, 2016).
Hit rate of the full screen: of about 10,000 compounds, about 15 (0.1%) were called active.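 Rule for the calls: active = highest signal at least 8 times the median of untreated cell-only control wells at some dose; inactive = the rest.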 The list is a sample of the results.

Protein sequences, listed by entry. Tags and fused reporters are not part of them. Chains listed by the source or under a name are the forms on record and can include a tag or linker.
UniProt P13569, with tags, fused parts or gaps F508del: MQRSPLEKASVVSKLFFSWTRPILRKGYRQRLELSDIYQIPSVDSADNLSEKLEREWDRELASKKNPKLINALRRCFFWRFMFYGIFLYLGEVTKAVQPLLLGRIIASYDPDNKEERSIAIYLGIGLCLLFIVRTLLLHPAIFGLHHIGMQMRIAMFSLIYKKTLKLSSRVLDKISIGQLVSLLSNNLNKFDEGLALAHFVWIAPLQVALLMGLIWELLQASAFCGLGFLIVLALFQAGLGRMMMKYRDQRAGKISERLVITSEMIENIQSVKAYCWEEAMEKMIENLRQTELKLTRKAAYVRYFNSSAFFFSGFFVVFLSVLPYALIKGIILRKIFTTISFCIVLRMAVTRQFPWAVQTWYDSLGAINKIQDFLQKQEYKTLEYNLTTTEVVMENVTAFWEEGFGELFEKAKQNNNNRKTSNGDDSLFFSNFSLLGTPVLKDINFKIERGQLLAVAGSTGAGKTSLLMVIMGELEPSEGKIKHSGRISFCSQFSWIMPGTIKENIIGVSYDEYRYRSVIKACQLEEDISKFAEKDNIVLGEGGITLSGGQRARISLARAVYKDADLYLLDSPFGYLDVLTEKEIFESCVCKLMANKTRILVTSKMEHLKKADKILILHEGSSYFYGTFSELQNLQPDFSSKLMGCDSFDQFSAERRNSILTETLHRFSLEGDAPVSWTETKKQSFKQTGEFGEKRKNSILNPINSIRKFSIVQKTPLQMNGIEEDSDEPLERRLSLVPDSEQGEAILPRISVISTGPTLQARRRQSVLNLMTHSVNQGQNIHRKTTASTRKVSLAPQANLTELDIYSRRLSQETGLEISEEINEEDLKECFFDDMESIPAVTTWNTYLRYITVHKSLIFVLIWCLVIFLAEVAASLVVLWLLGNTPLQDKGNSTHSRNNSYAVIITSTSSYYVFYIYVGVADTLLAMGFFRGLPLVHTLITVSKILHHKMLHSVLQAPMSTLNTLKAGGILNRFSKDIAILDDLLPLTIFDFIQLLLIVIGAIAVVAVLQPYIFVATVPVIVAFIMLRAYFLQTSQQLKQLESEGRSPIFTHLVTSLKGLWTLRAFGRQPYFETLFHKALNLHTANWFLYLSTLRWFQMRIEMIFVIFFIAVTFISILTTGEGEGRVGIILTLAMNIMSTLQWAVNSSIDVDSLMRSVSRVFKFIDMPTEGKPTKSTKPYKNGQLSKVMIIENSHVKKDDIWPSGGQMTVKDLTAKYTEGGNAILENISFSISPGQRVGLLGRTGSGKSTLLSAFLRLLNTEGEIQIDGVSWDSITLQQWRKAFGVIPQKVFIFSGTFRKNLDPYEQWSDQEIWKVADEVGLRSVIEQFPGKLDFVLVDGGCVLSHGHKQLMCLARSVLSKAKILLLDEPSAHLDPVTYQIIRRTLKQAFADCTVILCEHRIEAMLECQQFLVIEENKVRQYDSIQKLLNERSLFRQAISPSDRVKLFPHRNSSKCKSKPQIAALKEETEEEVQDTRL

Experiments:
[1] = total CFTR protein upregulators, primary screen, cell-based, HeLa F508del-CFTR, immunofluorescence, viability (AID 1224863); settings: 24 h, stronger effect = higher value; min viability: measured here: HeLa viability, alamarBlue, dose 20, library dosed in µg/mL unless noted; viability: measured here: primary viability 10 ug/mL, library dosed in µg/mL unless noted;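 for fold increase: total CFTR protein by anti-CFTR immunofluorescence in fixed cells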
[2] = biological target: Cystic fibrosis transmembrane conductance regulator (Homo sapiens) (UniProt P13569); assay: as above; settings: 24 h; fold increase: measured here: primary screen 10 ug/mL, library dosed in µg/mL, stronger effect = higher value unless noted; max fold increase: dose 10, library dosed in µg/mL, stronger effect = higher value unless noted; outcome: library dosed in µg/mL unless noted

Q: What does the source list for `Cn1ccnc1COc1ccc(C(=O)O)cc1`?
A: viability [1]: 89%; fold increase [2]: 1.02; outcome [2]: inactive

Q: What does the source list for `Cc1cc(-c2nccn2C)c(=O)[nH]n1`?
A: viability [1]: 99%; fold increase [2]: 1.08; outcome [2]: inactive

Q: What does the source list for `Cc1cc(NC(=O)N2CCN(C(=O)OC(C)(C)C)CC2)no1`?
A: viability [1]: 102%; fold increase [2]: 1.12; outcome [2]: inactive

Q: With `CC(C)CN1C(=O)c2ccc([N+](=O)[O-])cc2C1=O` as the compound, how does the viability [1] read?
A: The viability was 88%.

Q: What about the fold increase [2] of the same compound?
A: The fold increase was 0.89.

Q: What about the outcome [2] of the same compound?
A: The outcome was “inactive”.

Q: Which viability [1] does the source give for `O=C1NC2(CCCCCC2)C(=O)N1CN1CCCCCCC1` here?
A: The viability was 76%.

Q: What about the fold increase [2] of the same compound?
A: Its fold increase is 0.99.

Q: And the outcome [2]?
A: The outcome was “inactive”.

Q: Which viability [1] does the source give for `Cc1cccc2nc(CSc3ccc4ccccc4n3)cc(=O)n12` here?
A: The viability was 83%.

Q: What about the fold increase [2] of the same compound?
A: Its fold increase is 1.04.

Q: What about the outcome [2] of the same compound?
A: The outcome was “inactive”.

Q: Which viability [1] does the source give for `O=[N+]([O-])c1cn(Cc2cn(-c3ccccc3)nc2-c2ccc(Cl)cc2)cn1` here?
A: Its viability is 103%.

Q: And the fold increase [2]?
A: The fold increase was 1.3.

Q: What about the outcome [2] of the same compound?
A: Its outcome is “inactive”.

Q: Which results are given for `O=C(COc1cc(Cl)c(Cl)cc1Cl)N1CCN(C(=O)C2CCCO2)CC1` (stereo unspecified)?
A: viability [1]: 99%; fold increase [2]: 0.97; outcome [2]: inactive

Q: With `CCN(CC)S(=O)(=O)c1ccc(S(=O)(=O)Nc2nc3ccccc3nc2N2CCCC2)cc1` as the compound, how does the viability [1] read?
A: The viability was 92%.

Q: And the fold increase [2]?
A: The fold increase was 1.04.

Q: And the outcome [2]?
A: The outcome was “inactive”.

Q: Which viability [1] does the source give for `Cc1nnc(COC(=O)C2=Cc3ccccc3OC2)o1` here?
A: The viability was 102%.

Q: What about the fold increase [2] of the same compound?
A: Its fold increase is 1.03.

Q: And the outcome [2]?
A: Its outcome is “inactive”.

Q: What does the source list for `CN(C)C(=O)c1ccc(N2CCOC2=O)cc1`?
A: viability [1]: 97%; fold increase [2]: 0.98; outcome [2]: inactive

Q: What does the source list for `CCCCn1c(N)c(N(C)C(=O)CCS(=O)(=O)CC(C)C)c(=O)[nH]c1=O`?
A: viability [1]: 103%; fold increase [2]: 1; outcome [2]: inactive

Q: Which viability [1] does the source give for `CN1CCC(CNC(=O)C23CC4CC(CC(Cl)(C4)C2)C3)c2ccccc21` (stereo unspecified) here?
A: Its viability is 77%.

Q: And the fold increase [2]?
A: The fold increase was 1.08.

Q: And the outcome [2]?
A: The outcome was “inactive”.

Q: Which results are given for `CC(c1nc2ccccc2s1)N(C)CN1C(=O)C2CC=CCC2C1=O` (stereo unspecified)?
A: viability [1]: 91%; fold increase [2]: 1.02; outcome [2]: inactive

Q: Which viability [1] does the source give for `COC(=O)/C=C/c1ccc(OCC(=O)c2ccc(OC(F)F)cc2)c(OC)c1` here?
A: Its viability is 94%.

Q: What about the fold increase [2] of the same compound?
A: The fold increase was 1.05.

Q: What about the outcome [2] of the same compound?
A: The outcome was “inactive”.

Q: For `CCOc1c(Br)cc(CNC(C)C2CCCO2)cc1Br` (stereo unspecified), which viability [1] is on record?
A: Its viability is 99%.

Q: What about the fold increase [2] of the same compound?
A: Its fold increase is 1.09.

Q: What about the outcome [2] of the same compound?
A: Its outcome is “inactive”.

Q: What does the source list for `Cc1cc(C(C)(C)C)ccc1Oc1ccc2nnnn2n1`?
A: viability [1]: 71%; fold increase [2]: 1; outcome [2]: inactive
